Values quoted from earlier work, collected in patent US10159670B2, “Methods of diagnosing and treating motor neuron diseases and other cellular stress-related diseases” (priority 2012, dated 2018).

What was measured:
SOD1G93A mice = conditions: cited from earlier work
ALS patients = conditions: several clinical trials; cited from earlier work

For `Nc1nc2ccc(OC(F)(F)F)cc2s1` [Riluzole], which survival benefit (SOD1G93A mice) is on record?
The survival benefit was “lacks survival benefit”.

What about the “efficacy for the survival of ALS patients” value (ALS patients) of the same compound?
Its value is “only slight efficacy”.
